The values below come from patent publication US20080299108A1, “Peptides for Diagnostic and Therapeutic Methods for Celiac Sprue” (priority 2005, published 2008).

Data set [1] concerns BBM prepared from human intestinal biopsies. Put plainly: Digestion with BBM preparations from human intestinal biopsies.
The test system of another data set is rat jejunum. Briefly: In vivo intestinal perfusion in intact adult rats. The settings on record: 15-20 cm segment of jejunum, residence time 20 min.
Data set [2] deals with rat small intestinal brush-border membrane (BBM) enzymes. Briefly: Rat BBM digestion of peptides from α2-gliadin (12 ng/μl BBM protein). The data set is classed as in vitro ADME. The procedure:
BBM fractions were prepared from rat small intestinal mucosa.

Data set [3] deals with pepsin, trypsin, chymotrypsin, elastase and carboxypeptidase. Put plainly: Gastric and pancreatic protease digestion.

As for “LQLQPFPQPQLPYPQPQLPYPQPQLPYPQPQPF [33-mer]”, in data set [1] (100 μM peptide, 19 hours, 37° C.), the “stability toward human BBM” value is given as “remained largely intact”. The “Amount of Peptides Digested after 15 hours” value in data set [1] (H1P0), in data set [1] (H2P0), in data set [1] (H3P0), in data set [1] (H4P0) and in data set [1] (H5P0) was less than 20% in each case. In addition, the “stability in the perfusion experiment” value in the data set with rat jejunum is recorded as “most of the 33-mer gliadin peptide remained intact”. This sequence gave a half-life of digestion in data set [2] greater than 20 h. The “stability toward gastric and pancreatic proteases” value in data set [3] is on record as “remained intact despite prolonged exposure to proteases”.
